Among the data in patent US20230271956A1, “AMIDE DERIVATIVES” (Merck Patent GmbH, priority 2020, published 2023) are IC50 values, retold here.

Sequences of proteins named here, by UniProt entry; tags and fusion partners are left off.
UniProt Q9NR19, whole entry: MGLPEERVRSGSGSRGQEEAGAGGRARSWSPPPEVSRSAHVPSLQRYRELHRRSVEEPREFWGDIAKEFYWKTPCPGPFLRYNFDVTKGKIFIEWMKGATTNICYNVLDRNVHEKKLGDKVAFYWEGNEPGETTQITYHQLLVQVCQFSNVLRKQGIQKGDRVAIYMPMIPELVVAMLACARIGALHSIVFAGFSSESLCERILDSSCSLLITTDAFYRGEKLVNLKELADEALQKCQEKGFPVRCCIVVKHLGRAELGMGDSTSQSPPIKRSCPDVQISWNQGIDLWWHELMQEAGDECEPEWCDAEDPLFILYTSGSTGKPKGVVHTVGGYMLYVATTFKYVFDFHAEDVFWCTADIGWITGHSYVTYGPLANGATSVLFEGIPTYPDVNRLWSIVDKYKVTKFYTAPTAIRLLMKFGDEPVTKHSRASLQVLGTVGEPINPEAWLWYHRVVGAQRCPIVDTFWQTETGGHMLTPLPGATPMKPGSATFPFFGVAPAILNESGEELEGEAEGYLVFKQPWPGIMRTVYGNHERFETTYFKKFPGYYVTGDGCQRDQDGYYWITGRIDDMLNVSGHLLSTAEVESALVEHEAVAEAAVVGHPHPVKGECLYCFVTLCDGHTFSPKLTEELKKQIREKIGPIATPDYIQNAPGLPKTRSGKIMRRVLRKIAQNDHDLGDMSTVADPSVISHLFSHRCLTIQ

This is a selection: effects in other tests are not listed, and their absence says nothing.

This assay addresses human rec ACSS2 (Homo sapiens, UniProt Q9NR19). Kind of assay: Biochemical activity ACSS2 assay (AMP-Glo). As to conditions: read-out: IC50 biochemical; human recombinant ACSS2, AMP-Glo, 180 min at 37° C. How it is done: The biochemical activity assay for ACSS2 is based on the detection of released AMP by AMP-Glo ™ Assay kit (Promega, Madison). The assay is run in three steps: the enzymatic reaction in which human rec ACSS2 activates acetate with ATP and Coenzyme A as cosubstrates to acetyI-coA thereby releasing AMP and the detection reaction of AMP by AMP Glo assay in which after the destruction of the residual ATP with AMP Glo reagent 1 produced AMP is converted to ATP that is measured in a luciferase assay system (detection reagent). The ACSS2 activity correlates with the detected luminescence signal.
The assay was performed in Perkin Elmer 384well white Proxiplates in a total volume of 8 µl.
1 nM (fc) C-term myc tagged ACSS2 (human, recombinant, Origene, Rockville, US) and a mixture of 100 µM (fc) ATP, 100 µM (fc) Coenzyme A and 500 µM (fc) sodium acetate were incubated in a total volume of 5 µl (50 mM Hepes, 1 mM Mg-chloride, 150 mM NaCl, 1 mM DTT, 0.01 % (w/v) BSA, 0.3 % DMSO, pH 7.5) in the absence or presence of the test compound (10 dilution concentrations, start conc 30 µM) for 180 min at 37° C. […] The luminescence signal was measured with an Envision multimode reader (Perkin Elmer LAS Germany GmbH) at 700 nm in luminescence mode. […] The inhibitory values (IC50) were determined using the program Assay Analyzer® from GeneData.

As a reminder, the IC50 is the midpoint of a concentration-inhibition curve. As to `CCn1cnc(NC(=O)c2cc3c(nc2OC)nc(C(O)(c2ccccc2)c2ccccc2)n3CCN(C)C)n1`, the IC50 was 1 to 10 nM.
